In patent US20160024487A1, “THROMBIN SENSITIVE COAGULATION FACTOR X MOLECULES” (NOVO NORDISK A/S, priority 2013, published 2016):
Marks after values point to notes of the source that are not given here.

Test: Pharmacokinetic study of pdFX and 40 kDa HEP-[N]-pdFX in FVIII-KO mice (FX ELISA, NCA)
Type: in vivo
Settings: IV 1 mg/kg

Substance | AUC | Cl | Cmax | Vz
pdFX: human plasma derived Factor X purchased from Molecular Innovations | 443* hr*nmol/L | 0.628 mL/min/kg | 99 nM | 0.205 L/kg
40 kDa HEP-[N]-pdFX: human pdFX glycoHEPylated on the N-glycans with 40 kDa heparosan | 2257 nmol·h/L | 0.123 mL/min/kg | 148 nM | 0.209 L/kg
